Biological target: T1, HbpA (Pasteurella multocida (strain Pm70), UniProt Q9CN51)
T1 sequence (Q9CN51 whole entry): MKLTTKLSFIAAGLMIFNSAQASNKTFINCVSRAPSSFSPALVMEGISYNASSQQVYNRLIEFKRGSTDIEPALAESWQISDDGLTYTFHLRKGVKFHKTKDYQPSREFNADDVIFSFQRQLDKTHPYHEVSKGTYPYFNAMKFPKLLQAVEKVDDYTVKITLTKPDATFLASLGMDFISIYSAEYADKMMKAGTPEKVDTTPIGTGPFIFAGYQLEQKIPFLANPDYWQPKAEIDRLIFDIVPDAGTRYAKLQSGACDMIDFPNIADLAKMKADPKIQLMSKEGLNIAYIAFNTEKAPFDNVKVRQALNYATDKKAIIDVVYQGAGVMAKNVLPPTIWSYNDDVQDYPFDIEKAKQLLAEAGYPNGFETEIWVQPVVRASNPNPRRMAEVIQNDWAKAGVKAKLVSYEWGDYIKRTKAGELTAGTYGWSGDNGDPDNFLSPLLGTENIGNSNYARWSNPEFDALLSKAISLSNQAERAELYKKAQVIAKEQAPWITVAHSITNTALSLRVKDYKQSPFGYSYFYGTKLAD
Assay: Isothermal Titration Calorimetry (ITC)
Conditions: pH 7.4; 37 °C
Method: Purified test proteins were dialyzed overnight against 10 mM Tris-HCl, pH 7.4, at 4°C. The resultant dialysis buffer was then used to dissolve the test compounds. Titrations were always preceded by an initial injection of 3 μL and were carried out using 10-μL injections applied 300 s apart. The sample was stirred at a speed of 400 rpm throughout.

`CSC[C@H](NC(=O)CC[C@H](N)C(=O)O)C(=O)NCC(=O)O` [S-methylglutathione] was tested, and the Kd was 550 nM.

From BindingDB's records for doi:10.1186/1471-2091-12-59 (Ghent University, 2011)
